Our source for the relative telomerase activity (TRAPEZE kit, real time PCR) in transfected MRC 5 cells against non-transfected cells values is patent US20180325997A1.

The target in the assay is hTERT (human telomerase reverse transcriptase) (human) (UniProt O14746). In words: cell-based or functional assay.

Substance “LRP::FLAG protein (LRP as per SEQ ID NO: 2 and FLAG as per SEQ ID NO: 3) (from UniProt P14206 1-295) (receptor)” yielded a relative telomerase activity (TRAPEZE kit, real time PCR) in transfected MRC 5 cells against non-transfected cells of 98 % elevation.
